In article PMC5112578, “Zika antiviral chemotherapy: identification of drugs and promising starting points for drug discovery from an FDA-approved library” (F1000Research, 2016):

System: Zika virus (ZIKV)
Test: ZIKV high content screening assay (infection ratio by immunofluorescence in Huh7)
Details: reference compound dose-response curve, ZIKV-infected Huh7, 72 h

## IFNα2A: human recombinant Interferon α 2A used as reference compound
  EC50: 2.07 pM
